PubChem BioAssay AID1272365 (Small Molecule Screening Facility, UW Madison, 2020)
The entries are a selection whose mix differs from that of the whole data set. Active and inactive are the calls of the source. Rule as the data show it: active = inhibition mostly above about 37% (no sharp cut-off); inactive = mostly below about 20%.

The compounds below were run on PriA–SSB C-terminal tail interaction (Klebsiella pneumoniae) (assay: inhibitors of Klebsiella pneumoniae PriA binding to SSB C-terminal tail, primary screen, biochemical, AlphaScreen (AID 1272365;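 also: plate controls were negative control peptide for no effect and reference peptide for full effect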)). Details: AlphaScreen SSBct-PriA binding, biotinylated peptide; at 33 µM; active compounds read high.

| SMILES | inhibition |
| --- | --- |
| CCN(N=Nc1nonc1N)c1nonc1N | inactive: 2.77% |
| Nc1cccc2ccc([As](=O)(O)O)cc12 | inactive: -4.6% |
| O=C(O)c1ccccc1[As](=O)(O)O | inactive: -8.83% |
| CC(=O)Nc1ccc([As](=O)(O)O)cc1 | inactive: -4.24% |
| CCCC1OP(N)(=O)OCC1CC (configuration not stated) | inactive: -0.92% |
| O=P(Nc1nc2ccc(Cl)cc2s1)(c1ccccc1)c1ccccc1 | inactive: -4.1% |
| CCOP(=O)(Nc1ccccc1)OCC | inactive: -3.16% |
| Cc1cc(SC(NC(=O)c2ccc(F)cc2)C(Cl)(Cl)Cl)ncn1 (configuration not stated) | inactive: -9.15% |
| Cc1ccc(NP(=O)(Oc2ccccc2F)Oc2ccccc2F)nc1 | inactive: -6.17% |
| CN(C(=O)Cc1ccc(Cl)c(Cl)c1)[C@H]1CCCC[C@@H]1N1CCCC1 | inactive: -2.38% |
| CC(C)CC(=O)NC(Sc1ccc(Cl)cc1)C(Cl)(Cl)Cl (configuration not stated) | inactive: -37.1% |
| Nc1cc(N)c2nonc2c1[N+](=O)[O-] | inactive: -3.28% |
| Oc1ccccc1CNc1ccccn1 | inactive: -10.8% |
| O=C(NC(Sc1ccncn1)C(Cl)(Cl)Cl)c1ccccc1 (configuration not stated) | inactive: -12.2% |
| CC(C)C=NNC(=N)N[N+](=O)[O-] | inactive: -6.64% |
| NC(=O)c1cc([N+](=O)[O-])cc([N+](=O)[O-])c1N | inactive: -7.07% |
| CN(C(=O)Cc1ccc(Cl)c(Cl)c1)[C@H]1CCCC[C@H]1N1CCCC1 | inactive: -3.11% |
| COc1ccccc1OP(=O)(Nc1ccc(C)cn1)Oc1ccccc1OC | inactive: -4.75% |
| Cc1ccc(OP(=O)(Nc2nccs2)Oc2ccc(C)cc2)cc1 | inactive: -0.21% |
| Clc1ccc(Cl)c(NC2=NCC(CBr)S2)c1 (configuration not stated) | inactive: -9.52% |
| CN1CCCC(OC(=O)C(c2ccccc2)c2ccccc2)C1 (configuration not stated) | inactive: -9.5% |
| Nc1ccc([As](=O)(O)c2ccc(N)cc2)cc1 | inactive: 3.59% |
| C[N+]1=C2C=CC=CC=C2SC12C([N+](=O)[O-])=CC([N+](=O)[O-])=C[C-]2[N+](=O)[O-] (configuration not stated) | inactive: 37.7% |

| SMILES | inhibition |
| --- | --- |
| O=C(CCNCCCl)c1ccccc1 | inactive: 8% |
| CN(C)C(=O)OCCc1n(C)cc[n+]1C | inactive: 1.1% |
| CC1CCN(C(=O)Oc2c(Cl)cc(Cl)c3cccnc23)CC1 | inactive: -35.6% |
| COc1ccc(C2=NCC(CBr)S2)cc1 (configuration not stated) | inactive: -2.16% |
| O=[N+]([O-])c1cccc2n[nH]nc12 | inactive: -30.1% |
| CC(=O)N1C2C3N(C(C)=O)C1C1N(C(C)=O)C(C(N1C(C)=O)N3C(C)=O)N2C(C)=O | inactive: -2.6% |
| Cc1ccc(NP(=O)(Oc2ccccc2)Oc2ccccc2)nc1 | inactive: 6.88% |
| CCc1nc2c(n1)c1c(non1O)c1c2no[n+]1[O-] | inactive: 0.44% |
| O=[N+]([O-])c1cc([N+](=O)[O-])c(CCNc2ccccc2)c([N+](=O)[O-])c1 | inactive: 34.8% |
| CC(C)(C)C(=O)NC(Sc1ccncn1)C(Cl)(Cl)Cl (configuration not stated) | inactive: 3.21% |
| O=[N+]([O-])c1ncn(CCn2ncnc2[N+](=O)[O-])n1 | inactive: -2.12% |
| O=[N+]([O-])c1cccc(NC2=NCC(CBr)S2)c1 (configuration not stated) | inactive: -5.75% |
| COC(=O)C1(C)COP(=O)(Nc2ccccc2)OC1 (configuration not stated) | inactive: -15.3% |
| O=C(O)CNc1ccc([As](=O)(O)O)cc1 | inactive: -13.1% |
| O=P1(N(CCCl)CCCl)OCCCS1 (configuration not stated) | inactive: -8.13% |
| Clc1n[nH]nc1-c1nn[nH]n1 | inactive: -8.39% |
| O=C(Nc1cc([As](=O)(O)O)ccc1O)c1ccccc1 | inactive: 1.57% |
| CC(=O)NC(SC(=S)N(C)C)C(Cl)(Cl)Cl (configuration not stated) | inactive: -12.4% |
| O=[N+]([O-])c1ncn(CCn2cnc([N+](=O)[O-])n2)n1 | inactive: -12.4% |
| O=[As](O)(c1ccccc1)c1ccc(O)cc1 | inactive: 7.35% |
| O=C1CCCCC1CNCCBr (configuration not stated) | inactive: -8% |
| O=[N+]([O-])c1ccc(O)c(C=NNc2ccc([N+](=O)[O-])cc2[N+](=O)[O-])c1 | inactive: 9.07% |
| Nc1ccc([As](=O)(O)c2ccc([N+](=O)[O-])cc2)cc1 | inactive: 7.06% |

| SMILES | inhibition |
| --- | --- |
| C(Cc1nn[nH]n1)Cc1nn[nH]n1 | inactive: 4.26% |
| O=C(OC1CN2CCC1CC2)c1cccc(Cl)c1 (configuration not stated) | inactive: -0.05% |
| COc1ccc(N)c([N+](=O)[O-])c1[N+](=O)[O-] | inactive: 8.43% |
| O=P(Nc1ccccn1)(c1ccc(Br)cc1)c1ccc(Br)cc1 | inactive: -8.92% |
| CN(C)C1(CNC(=O)c2ccc(Cl)c(S(N)(=O)=O)c2)CCCCC1 | inactive: -13.2% |
| O=P(Nc1nc2ccccc2s1)(c1ccccc1)c1ccccc1 | inactive: -5.41% |
| CCN(C(=NP(=O)(N1CCOCC1)N1CCOCC1)N1CCOCC1)c1ccc(OC)cc1 | inactive: -4% |
| C[C@H]1OP(=O)(Oc2ccccc2)[C@H](O)[C@H](O)[C@H]1N=[N+]=[N-] (some centres not stated) | inactive: -0.15% |
| CC(C)C(=O)NC(Sc1ccccc1)C(Cl)(Cl)Cl (configuration not stated) | inactive: -27% |
| O=P(Nc1nccs1)(c1ccccc1)c1ccccc1 | inactive: -16.6% |
| CCNC(=S)N=C(N)N[N+](=O)[O-] | inactive: -4.26% |
| CC(C)=NNC(=N)N[N+](=O)[O-] | inactive: -9.89% |
| c1nnnn1CCn1cnnn1 | inactive: -7.05% |
| NC(=NO)c1c(N)no[n+]1[O-] | inactive: 0.24% |
| N#C/C(=C\c1ccc(N(CCBr)CCBr)cc1)C(N)=O | inactive: -6.39% |
| CC(=O)c1ccc(N2CC2c2ccncc2)cc1 (configuration not stated) | inactive: -5.93% |
| COC(=O)C1(C)COP(=O)(NCc2ccccc2)OC1 (configuration not stated) | inactive: -9.31% |
| Cc1ccccc1CN(C)C(=O)COC(=O)C(O)(c1ccccc1)c1ccccc1 | inactive: 1.29% |
| C[C@@H]1C=CCP(=O)(Oc2ccccc2)O1 (some centres not stated) | inactive: -14.9% |
| C[C@H]1OP(=O)(Oc2ccccc2)C[C@@H]2O[C@@H]21 (some centres not stated) | inactive: -7.38% |
| CCOc1ccc(Nc2c([N+](=O)[O-])cc(C(F)(F)F)cc2[N+](=O)[O-])c([N+](=O)[O-])c1 | inactive: 5% |
